The text below walks through data of ChEMBL document CHEMBL4270596, “Discovery of a potent non-oxime reactivator of nerve agent inhibited human acetylcholinesterase” (2018).

Broadly, the IC50 is the concentration that inhibits the measured activity by half. In general, Ki refers to the equilibrium dissociation constant of an inhibitor or competing ligand from its target.

For data set [1], the target named is T1, Acetylcholinesterase (Homo sapiens, UniProt P22303). Briefly: Inhibition of AChE in human erythrocyte membranes at 1000 uM using acetylthiocholine as substrate measured after 2 to 60 mins by Ellman's method. The following applies: erythrocytes.
For data set [2], the target named is T1, Acetylcholinesterase. The experiment in a line: Inhibition of AChE in human erythrocyte membranes at <= 100 uM using acetylthiocholine as substrate measured after 2 to 60 mins by Ellman's method. The following applies: erythrocytes. (In Ellman's method for cholinesterases, released thiocholine reacts with DTNB.)
Data set [3] addresses T1, Acetylcholinesterase. Briefly: Inhibition of AChE in human erythrocytes using acetylthiocholine as substrate measured for 1 min.
The target in data set [4] is T1, Acetylcholinesterase. The experiment in a line: Inhibition of recombinant human AChE using acetylthiocholine as substrate by DTNB reagent based assay.
The target of data set [5] is T1, Acetylcholinesterase. Briefly: Competitive inhibition of recombinant human AChE using varying levels of acetylthiocholine as substrate.
The target in data set [6] is T1, Acetylcholinesterase. Briefly: Non-competitive inhibition of recombinant human AChE using varying levels of acetylthiocholine as substrate.
In data set [7] the target is T1, Acetylcholinesterase. The experiment in a line: Competitive inhibition of AChE in human erythrocytes using varying levels of acetylthiocholine as substrate measured for 1 min by Lineweaver-burk plot analysis.
The target in data set [8] is T1, Acetylcholinesterase. Briefly: Non-competitive inhibition of AChE in human erythrocytes using varying levels of acetylthiocholine as substrate measured for 1 min by Lineweaver-burk plot analysis.

In the case of `CCN(CC)Cc1cc(N)ccc1O.Cl.Cl`, the “inhibition (INH)” value is listed as “Active” in data set [1] and “Not Active” in data set [2].

With `CCN(CC)Cc1cc(N)ccc1O`, the values for the IC50 in data set [3] and in data set [4] were 48.3 µM and 17.8 µM, respectively. The Ki in data set [5] is 6.3 µM; in data set [6], 37.4 µM; in data set [7], 16 µM; in data set [8], 37.7 µM.

For the compound `Nc1ccc(O)c(CN2CCCC2)c1`, in data set [3], 6.3 µM corresponded to half-maximal inhibition (IC50). In addition, the results for the Ki in data set [7] and in data set [8] were 7.8 µM and 3.3 µM, respectively.

For `Cl.Cl.Nc1ccc(O)c(CN2CCCC2)c1`, the entries for the “inhibition (INH)” value in data set [1] and in data set [2] were “Active” and “Not Active”, respectively.
